Assay results published in ChEMBL document CHEMBL1127550, “(R)-methanandamide: a chiral novel anandamide possessing higher potency and metabolic stability” (J Med Chem, 1994).

The chains behind the UniProt entries cited, without tags or fusion partners. Where a name states a change or a piece, a line headed by the entry shows the natural chain unless it says otherwise.
UniProt Q9QZN9: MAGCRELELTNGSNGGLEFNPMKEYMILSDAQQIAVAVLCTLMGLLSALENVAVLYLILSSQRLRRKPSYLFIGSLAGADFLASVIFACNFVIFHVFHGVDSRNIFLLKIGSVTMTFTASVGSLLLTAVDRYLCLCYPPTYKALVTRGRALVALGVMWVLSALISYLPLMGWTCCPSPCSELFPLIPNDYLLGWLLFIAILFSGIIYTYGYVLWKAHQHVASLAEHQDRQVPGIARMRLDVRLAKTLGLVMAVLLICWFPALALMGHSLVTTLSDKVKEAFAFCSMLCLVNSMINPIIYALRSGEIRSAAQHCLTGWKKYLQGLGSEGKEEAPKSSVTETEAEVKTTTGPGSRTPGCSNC
UniProt P20272: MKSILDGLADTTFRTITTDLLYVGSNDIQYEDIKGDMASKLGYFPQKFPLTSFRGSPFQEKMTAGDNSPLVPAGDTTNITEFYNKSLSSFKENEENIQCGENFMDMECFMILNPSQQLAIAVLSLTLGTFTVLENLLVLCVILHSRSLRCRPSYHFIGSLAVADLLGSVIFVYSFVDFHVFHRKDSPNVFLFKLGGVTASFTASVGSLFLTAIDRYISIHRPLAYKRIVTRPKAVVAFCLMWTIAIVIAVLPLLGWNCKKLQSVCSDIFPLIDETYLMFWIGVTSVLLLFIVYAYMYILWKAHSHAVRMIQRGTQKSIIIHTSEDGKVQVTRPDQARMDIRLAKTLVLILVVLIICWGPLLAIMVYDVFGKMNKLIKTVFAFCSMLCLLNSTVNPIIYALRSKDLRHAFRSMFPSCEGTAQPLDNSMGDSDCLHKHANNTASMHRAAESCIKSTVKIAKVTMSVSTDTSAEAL

Tests used:
[1] = biological target: T1, Cannabinoid receptor (Rattus norvegicus, UniProt Q9QZN9+P20272); experiment: Binding affinity for the cannabinoid receptor in the presence of phenylmethanesulfonyl fluoride (PMSF) was determined in rat fore brain membranes; format: cell membranes, Membrane
[2] = biological target: T1, Cannabinoid receptor; experiment: Binding affinity for the cannabinoid receptor in the absence of phenylmethanesulfonyl fluoride (PMSF) was determined in rat fore brain membranes; format: cell membranes, Membrane

Structure (SMILES) | Ki [1] [nM] | Ki [2] [nM]
CCCCC/C=C\C/C=C\C/C=C\C/C=C\CCCC(=O)N[C@H](C)CO [METHANANDAMIDE] | 20 | 28
CCCCC/C=C\C/C=C\C/C=C\C/C=C\CCCC(=O)NCCO [ANANDAMIDE] | 78 | > 1180
CCCCC/C=C\C/C=C\C/C=C\C/C=C\CCCC(=O)N[C@@H](C)CO | 173 | 268
